This note sets out measurements from US20250381194A1, “METHODS FOR MITIGATING THE EFFECTS OF LOW-LEVEL BLASTS THROUGH PHOSPHODIESTERASE-5 INHIBITION” (University of Kentucky Research Foundation, priority 2024, published 2025).

The test system of test [1] is capillaries isolated from the cortex. Kind of test: Capillary respirometry profiling (Seahorse mitochondrial stress test) of isolated brain capillaries after mbTBI. Format: cell-based, Sprague Dawley rats. The source says: Blast Exposure. The MBD consists of a cylindrical steel tube, 12-inch internal diameter, separated into a 19-ft. expansion chamber and a 2.5-ft compression chamber. For these studies, compressed helium-driven mode was used to replicate military blast exposure. A 10-mil-thick (0.254 mm) biaxially-oriented polyethylene terephthalate (Mylar) membrane separates the two chambers. The Mylar membrane was actively ruptured by a 4-point blade affixed to a pneumatic cylinder to achieve desired static overpressure. The shock wave was recorded by face-on, reflected pressure (Kulite pitot-static pressure probe) and wall-mounted side-on static pressure sensors (Kulite). Data from each piezoresistive sensor was routed through sensor cables before being captured by the state-of-the-art TMX-18 (AstroNova™ Test & Measurement, 800 kHz sampling rate) and analyzed using AstroView. The rat subjects were secured in plastic netting to minimize but allow free body motion without neck flexion. The rat subjects were positioned 30 inches inside the tube and with lateral head exposure. An overpressure of 11 PSI was utilized, which is in the range where neurological disruption has been observed in operations involving breaching activity. In the studies underlying this example, Sprague Dawley rats were subjected to single blast exposure. Capillary Isolation. Brain capillaries were isolated as previously described. Animals were euthanized by CO2 inhalation and decapitated, brains were removed, dissected, and homogenized in cold PBS buffer (2.7 mM KCl, 1.46 mM KH2PO4, 136.9 mM NaCl, 8.1 mM Na2HPO4, 5 mM D-glucose, 1 mM sodium pyruvate, pH 7.4). Ficoll® was added to the brain homogenate to a final concentration of 15% and the Ficoll®/brain mixture was centrifuged at 5,800 g for 20 min at 4° C. After resuspending the pellet in 1% BSA/PBS, the capillary suspension was passed over a 30 μm filter to purify capillaries from debris and blood cells. Capillaries were washed and used for experiments. Capillary Respirometry Profiling. Vessel respiration was conducted according to our preliminary study and Sure, et al. (2018). Using a Seahorse XFe96 Flux Analyzer (Agilent Technologies, Palo Alto, CA, USA), the mitochondrial stress test was performed according to the manufacturer's instructions. Briefly, capillaries from each group were centrifuged, and the pellet was resuspended in XF assay medium with substrates (10 mM glucose, 1 mM pyruvate, and 2 mM L-glutamine). […] After three measurements of baseline OCR (basal respiration), respiratory chain inhibitors/uncouplers were sequentially injected into each well (1 μM Oligomycin, 4 μM FCCP, 0.5 μM Rotenone/Antimycin A, and 5 mM 2-deoxyglucose (2DG)), and OCR was measured three times after each injection. Maximal respiration was calculated on OCR data recorded after FCCP addition and basal glycolysis was calculated on Extracellular Acidification Rate (ECAR) data recorded after 2-DG addition. At the end of the experiment, the XF microplate was centrifuged at 1000 g for 10 min, after removing the media, 10 μl RIPA buffer was added to the capillaries in each well, and freeze-thaw cycles were performed 3 times in dry ice before protein was quantified using a BCA kit (23225; Thermo Scientific). Using Wave software version 2.6.1 (Agilent Technologies, Santa Clara, CA, USA), OCR from various respiration states was calculated and normalized to protein concentration Respiration in Capillaries Following mbTBI. […]

Test [2] concerns cyclic guanosine monophosphate (cGMP) in capillaries isolated from rat cortex. The test is described as follows: cGMP ELISA on media of isolated brain capillaries. The note with it: sildenafil 100 nM, 1 μM or 10 μM, incubated two hours; vs control capillaries. It is filed as cell-based. As for the experimental part: cGMP Concentration. The effect of sildenafil treatment on cyclic guanosine monophosphate (cGMP) following rmbTBI was assessed by comparison of isolated control capillaries and isolated sildenafil-treated capillaries (100 nM, 1 μM, or 10 μM) obtained from rat cortex. Capillaries were isolated from rat cortex and incubated for two hours and then media was collected and tested using cGMP ELISA kit.

Test [3] relates to cognitive performance following rmbTBI. Kind of test: Novel object recognition task after rmbTBI. Format: in vivo, Sprague Dawley rats. The note with it: 5 mg/kg low dose daily, three days post-rmbTBI; compared to chance (0.5). The source says: Blast Exposure. The MBD consists of a cylindrical steel tube, 12-inch internal diameter, separated into a 19-ft. expansion chamber and a 2.5-ft compression chamber. For these studies, compressed helium-driven mode was used to replicate military blast exposure. A 10-mil-thick (0.254 mm) biaxially-oriented polyethylene terephthalate (Mylar) membrane separates the two chambers. The Mylar membrane was actively ruptured by a 4-point blade affixed to a pneumatic cylinder to achieve desired static overpressure. The shock wave was recorded by face-on, reflected pressure (Kulite pitot-static pressure probe) and wall-mounted side-on static pressure sensors (Kulite). Data from each piezoresistive sensor was routed through sensor cables before being captured by the state-of-the-art TMX-18 (AstroNova™ Test & Measurement, 800 kHz sampling rate) and analyzed using AstroView. The rat subjects were secured in plastic netting to minimize but allow free body motion without neck flexion. The rat subjects were positioned 30 inches inside the tube and with lateral head exposure. […] For analysis, a recognition index was calculated for each trial (time spent exploring the familiar object relative to the novel object divided by total time exploring objects during each trial). […] Results were assessed one week after blast exposure.

Test [4] has as its system cortex metabolites (NAD+/NADH metabolism). The test is described as follows: Cortex metabolomic profile by LC-MS after rmbTBI. Format: in vivo, Sprague-Dawley rats. The following applies: 20 mg/kg oral gavage daily for 7 days, vs rmbTBI vehicle. The source says: Animal Procedure. Male Sprague-Dawley rats (Charles River Laboratories, Wilmington, MA, USA), aged 8-10 weeks and weighing approximately 250-300 g, randomly assigned into experimental groups (n=5/group), including: (1) Sham group without blast treatment (vehicle via oral gavage daily for 7 days); (2), rmbTBI-Vehicle group (vehicle via oral gavage daily for 7 days, with administration occurring immediately following each respective blast exposure and continuing to day 7); and (3) rmbTBI-Sildenafil group (20 mg/kg sildenafil via oral gavage daily for 7 days, with administration occurring immediately following each respective blast exposure and continuing to day 7). The rmbTBI blast procedure was performed on day 0 and day 1 (24 h interval) (i.e., two blasts total) using a McMillan Blast Device at delivering 11 psi peak static overpressure blast wave. On day 8, the rats were euthanized without the use of isoflurane to preserve endogenous metabolites. The brain was rapidly removed, and the hippocampus and cortex were dissected, snap-frozen in liquid nitrogen, and stored at −80° C. until further analysis. Frozen brain tissues were submitted for liquid chromatography-mass spectrometry (LC-MS) analysis to quantify metabolites and assess biochemical alteration.
Sample Prep for LC-MS. All tissues were handled on liquid nitrogen when removed from cryostorage at −80° C. Brain samples were removed from cryostorage and pulverized to 10 μm particles in liquid N2 using a Freezer/Mill Cryogenic Grinder (model 6875D, SPEX SamplePrep, Metuchen, NJ, USA). Approximately 25 mg of powdered tissue was removed with a micro spatula to a new tube and extracted with 50% MeOH (1% formic acid). Following addition of MeOH, mixtures were placed on ice for 20 min and briefly vortexed at 5 min intervals. Following centrifugation at 24,000×g for 10 min at 4° C. the aqueous phase containing polar metabolites was filtered to remove lipids using Agilent captiva EMR-Lipid filter under positive pressure manifold. The resulting filtrate was fully dried at 10-3 mBar using a SpeedVac (Thermo Fisher Scientific, Waltham, MA, USA) to evaporate remaining MeOH then reconstituted in 5% acetonitrile, normalized to mass of tissue used for extraction.
High-Performance Liquid Chromatograph (HPLC) Parameters. Metabolite separation was achieved using the Agilent 1290 Infinity II Stainless HPLC system equipped with an InfinityLab Poroshell 120 HILIC-Z column. The mobile phase consisted of solvent A (water with 10 mM ammonium acetate and 0.1% medronic acid) and solvent B (acetonitrile with 10 mM ammonium acetate).
MS/MS Parameters. Analysis performed on Agilent 6495C LC/TQ with the following parameters: ion mode set at both positive and negative, gas temperature 200 C, drying gas flow 14 L/min, nebulizer gas at 50 psi, sheath gas temperature at 375 C, sheath gas flow at 12 L/min, capillary voltage set to (+) 3000/(−) 2500 V and nozzle voltage set at 0 V.
Data Analysis. After data acquisition, initial data analysis performed on Agilent MassHunter Quantitative Analysis for peak identification and quantification. Relative abundance of each metabolite was then exported into excel and statistical analysis performed using Metaboanalyst (https://www.metaboanalyst.ca). Graphs were made using GraphPad Prism 9.

In test [5] the test system is IBA1. The test is described as follows: IBA1 brain tissue immunostaining with HALO analysis, chronic delayed sildenafil study. It is filed as in vivo, Sprague Dawley rats. The following applies: 20 mg/kg oral gavage daily from 2 months to 5 months post-blast injury, rmbTBI. As for the experimental part: Animal Procedure. 8-12 week old male Sprague Dawley rats (purchased from Charles River) randomly assigned into experimental groups: 1) Sham group without blast treatment, total n=12 rats (n=6 received 20 mg/kg sildenafil and n=6 received vehicle via oral gavage daily from 2 months to 5 months post-blast injury); 2) rmbTBI-Vehicle group, total n=11 rats (vehicle via oral gavage daily from 2 months to 5 months post-blast injury); 3) rmbTBI-Sildenafil group, total n=12 rats (20 mg/kg sildenafil via oral gavage daily from 2 months to 5 months post-blast injury). MRI (magnetic resonance imaging) was performed at 1.5 and 4.5 months post-blast. Fear conditioning test was performed at 5 months post-blast. At the end of the experiment, rats were euthanized and the brain tissue was collected after transcardial perfusion with PBS (FIG. 24). One hemisphere of the brain was snap frozen with liquid nitrogen for brain capillary isolation while another hemisphere of the brain was fixed with 4% paraformaldehyde (PFA). After 48 hours of fixation, the brain tissue was placed into PBS containing 30% sucrose for 72 hours. The sucrose saturated brain tissue was flash frozen in-25 to -35° C. isopentane and stored at -20° C. or proceeded to sectioning. Brain tissue Immunostaining. The PFA fixed and processed half rat brain tissue from all groups was sliced into 40-micron thickness. […]

[6] abbreviates: first cohort, mbTBI (single blast 11 PSI) capillaries isolated 1 day post-blast, bathed in sildenafil for two hours, vs control.

Structures are written as SMILES. Entries after “also recorded” stand apart in the source; their conditions may differ.

Turning to `CCCc1nn(C)c2c(=O)[nH]c(-c3cc(S(=O)(=O)N4CCN(C)CC4)ccc3OCC)nc12` [sildenafil], the “capillary-specific maximal mitochondrial respiration” value in test [1] (data combined from both cohorts, mbTBI capillaries, sildenafil two hours) is given as “restore mbTBI-induced deficits”. In addition, in test [1] (setting [6]), the basal glycolysis entry is on record as “non-significantly increased”, the basal respiration result is listed as “non-significantly increased” and the maximal respiration result is “non-significantly increased”. The maximal respiration result in test [1] (second cohort, mbTBI capillaries isolated 1 day post-blast, bathed in sildenafil for two hours) is reported as “normalized”. Also, the “cGMP in isolated capillaries” value in test [2] is “increased”. Also, the “recognition index (RI)” value in test [3] was “significantly increased”. In test [4], the “relative abundance of NAD+ in cortex” value was “increase”, the “relative abundance of NADH in cortex” value is on record as “increase”, the “relative abundance of cAMP in cortex” value is on record as “increase” and the “relative abundance of fructose-6-phosphate in cortex” value was “decrease”. Moreover, in test [4], the “relative abundance of glucose-6-phosphate in cortex” value is on record as “decrease”, the “relative abundance of guanosine-5-monophosphate (GMP) in cortex” value is reported as “decrease” and the “relative abundance of nicotinamide in cortex” value is recorded as “decrease; also recorded: statistically significant reduction”. In test [5], the “IBA1 expression in cortex, hippocampus, amygdala and corpus callosum” value was “inconclusive”.
